Test results reported in publication PMC3365592 (European Journal of Medicinal Chemistry, 2012).

By UniProt entry, the sequences of proteins in these tests, tags left out.
UniProt P19327, whole entry: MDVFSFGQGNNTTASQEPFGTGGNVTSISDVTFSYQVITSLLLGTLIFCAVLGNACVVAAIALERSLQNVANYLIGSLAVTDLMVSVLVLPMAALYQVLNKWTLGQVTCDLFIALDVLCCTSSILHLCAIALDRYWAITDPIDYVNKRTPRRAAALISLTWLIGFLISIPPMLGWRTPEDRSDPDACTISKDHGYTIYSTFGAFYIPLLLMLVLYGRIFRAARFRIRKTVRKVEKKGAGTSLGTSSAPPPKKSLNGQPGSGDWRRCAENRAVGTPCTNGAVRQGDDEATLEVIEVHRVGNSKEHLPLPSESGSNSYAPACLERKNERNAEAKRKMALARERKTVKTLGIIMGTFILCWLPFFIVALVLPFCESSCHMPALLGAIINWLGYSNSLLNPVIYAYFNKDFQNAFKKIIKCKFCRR

target: 5-HT1A receptors (Rattus norvegicus, UniProt P19327); assay: 5-HT1A receptor binding experiments

| Structure (SMILES) | Ki [nM] |
| --- | --- |
| CC1CN(c2ccc3cc([N+](=O)[O-])ccc3n2)CCN1CCCCN1C(=O)CC2(CCCC2)CC1=O (stereo not drawn) [Compound 5, 8-{4-[2-Methyl-4-(6-nitro-quinolin-2-yl)-piperazin-1-yl]-butyl}-8-aza-spiro[4.5]-decane-7,9-dione] | 777 ± 118 |
| CC1CN(c2ccc3cc([N+](=O)[O-])ccc3n2)CCN1CCCCN1C(=O)CC(C)(C)CC1=O (stereo not drawn) [Compound 7, 4,4-Dimethyl-1-{4-[2-methyl-4-(6-nitro-quinolin-2-yl)-piperazin-1-yl]-butyl}-piperidine-2,6-dione] | 221 ± 34.6 |
| CC(=O)Nc1ccc2nc(N3CCN(CCCCN4C(=O)CC5(CCCC5)CC4=O)CC3)ccc2c1 [Compound 11, N-(2-{4-[4-(7,9-Dioxo-8-azaspiro[4.5]dec-8-yl)butyl]piperazin-1-yl}quinolin-6-yl)-acetamide] | 3200 ± 800 |
